pIC50, pKd: −log10 of the molar value.
Legend:
[1] = biological target: T1, Full-length inactive AKT1 (Homo sapiens (Human), UniProt P31749); test: Thermal Shift Assay (protein-ligand binding); conditions: Kd at 25° C. calculated using constant ligand binding enthalpy −15 kcal/mol; 15 μM compound, ANS dye
Experimental: Binding analysis. Protein-ligand binding was identified with the thermal shift assay which is based on the ligand-induced stabilization of the protein tertiary structure. The thermal stability of the ligand-Akt1 complex was assessed by subjecting the complex to a set temperature gradient and by comparison of the meltion temperature of the Akt1-ligand complex with the melting temperature of the protein alone. Protein unfolding was monitored by the fluorescence readout of an environmentally sensitive fluorescent dye, 1-anilinonaphthalene-8-sulfonic acid (ANS). […] The PCR plate was placed into a RT-PCR instrument and a temperature gradient was performed, increasing from 27 to 80° C., at 1° C./30 sec heat rate with a dwell time of 20 sec. The change in ANS fluorescence was measured using the filter set of 475 nm/525 nm excitation/emission. Ligand affinity parameter (Kd) at 25° C. was calculated using constant ligand binding enthalpy ? H=−15 kcal/mol.

Sequences of proteins named here, by UniProt entry; tags and fusion partners are left off. A change or cut given only in a name is not applied to a line headed by its entry.
UniProt P31749: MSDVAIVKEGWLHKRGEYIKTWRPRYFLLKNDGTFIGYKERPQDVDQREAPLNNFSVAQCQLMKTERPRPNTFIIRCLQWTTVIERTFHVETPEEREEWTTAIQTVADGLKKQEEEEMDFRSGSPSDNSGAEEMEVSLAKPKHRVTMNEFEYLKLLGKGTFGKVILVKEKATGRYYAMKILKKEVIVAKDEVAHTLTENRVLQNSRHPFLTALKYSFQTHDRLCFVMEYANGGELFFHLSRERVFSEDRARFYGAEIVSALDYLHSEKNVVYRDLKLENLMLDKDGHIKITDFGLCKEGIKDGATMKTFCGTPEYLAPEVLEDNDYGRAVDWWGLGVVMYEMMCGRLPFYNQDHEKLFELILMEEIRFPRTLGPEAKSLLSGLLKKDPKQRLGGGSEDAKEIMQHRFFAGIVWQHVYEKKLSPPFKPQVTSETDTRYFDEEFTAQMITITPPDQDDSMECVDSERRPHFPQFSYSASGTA

[2] = biological target: T1, Full-length inactive AKT1; test: Inactive Akt Alpha Screen Assay; conditions: 8 nM inactive Akt1 activated by PDK1 and MAPKAPK2, lipid vesicles, 50 μM ATP, biotinylated crosstide; read-out: Akt1 biochemical assay IC50 AlphaScreen crosstide
Experimental: AKT1 activity was assayed using the GSK3-derived biotinylated peptide substrate, crosstide (biotin-GRPRTSSFAEG), and AlphaScreen™ (Amplified Luminescent Proximity Homogeneous Assay) technology. AKT1 activation was achieved by the addition of the activating kinases PDK1 and MAPKAPK2, lipid vesicles, and ATP. The extent of peptide phosphorylation was determined using a phospho-AKT substrate antibody and acceptor beads conjugated to Protein A and donor beads conjugated to streptavidin that bind to the biotin on the peptide. […]
Test inhibitors and controls ((S)-1-((5-(3-methyl-1H-indazol-5-yl)pyridin-3-yl)oxy)-3-phenylpropan-2-amine, 1-(1-(4-(7-phenyl-1H-imidazo[4,5-g]quinoxalin-6-yl)benzyl)piperidin-4-yl)-1H-benzo[d]imidazol-2(3H)-one, and 8-(4-(1-aminocyclobutyl)phenyl)-9-phenyl[1,2,4]triazolo[3,4-f][1,6]naphthyridin-3(2H)-one) were prepared in 10% DMSO at 10-fold the desired final concentration, and added to each well of a reaction plate (Corning 96-well half-area solid white nonbinding surface plate) in a volume of 2.5 μL. […] Assay plates were incubated for 90 minutes at room temperature in the dark, and the plates were read on a Perkin Elmer Envision Multilabel plate reader (excitation wavelength: 640 nm, emission wavelength: 570 nm). […]

pKd [1] | pIC50 [2] | Compound
8.92 | 8.82 | C[C@@H](O)CNC(=O)c1cccc(-c2ccc3nc(-c4cccnc4N)n(-c4ccc(C5(N)CCC5)cc4)c3n2)c1 [Cmpd 8, (R)-3-(3-(4-(1-aminocyclobutyl)phenyl)-2-(2-aminopyridin-3-yl)-3H-imidazo[4,5-b]pyridin-5-yl)-N-(2-hydroxypropyl)benzamide]
8.15 |  | C[C@H](O)CNC(=O)c1cccc(-c2ccc3nc(-c4cccnc4N)n(-c4ccc(C5(N)CCC5)cc4)c3n2)c1 [Cmpd 7, (S)-3-(3-(4-(1-aminocyclobutyl)phenyl)-2-(2-aminopyridin-3-yl)-3H-imidazo[4,5-b]pyridin-5-yl)-N-(2-hydroxypropyl)benzamide]
9.70 | 8.84 | CC(=O)NC1CCN(c2cccc(-c3ccc4nc(-c5cccnc5N)n(-c5ccc(C6(N)CCC6)cc5)c4n3)c2)CC1 [Cmpd 12, N-(1-(3-(3-(4-(1-aminocyclobutyl)phenyl)-2-(2-aminopyridin-3-yl)-3H-imidazo[4,5-b]pyridin-5-yl)phenyl)piperidin-4-yl)acetamide]

Source: US8609688B2, “Substituted imidazopyridinyl-aminopyridine compounds” (ArQule, Inc., priority 2011, dated 2013)
